Measurements from publication PMC11181336, “Discovery of ITI-333, a Novel Orally Bioavailable Molecule Targeting Multiple Receptors for the Treatment of Pain and Other Disorders” (Journal of Medicinal Chemistry, 2024).
pKi: −log10 of the molar value.

Amino acid sequences for entries named in this document (tags omitted).
UniProt P35372, whole entry: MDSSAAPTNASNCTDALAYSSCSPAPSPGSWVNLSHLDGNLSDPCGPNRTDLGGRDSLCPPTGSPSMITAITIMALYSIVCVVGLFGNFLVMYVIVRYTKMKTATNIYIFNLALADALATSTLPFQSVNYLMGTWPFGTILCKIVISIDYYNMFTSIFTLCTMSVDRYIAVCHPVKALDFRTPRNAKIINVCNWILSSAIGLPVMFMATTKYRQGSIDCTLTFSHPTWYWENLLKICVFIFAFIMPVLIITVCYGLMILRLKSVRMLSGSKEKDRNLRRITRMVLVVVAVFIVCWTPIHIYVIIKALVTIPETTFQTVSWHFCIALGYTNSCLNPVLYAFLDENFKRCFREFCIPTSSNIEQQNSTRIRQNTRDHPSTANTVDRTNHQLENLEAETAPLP

Biological target: human recombinant MOR (Homo sapiens, UniProt P35372)
Assay: μ-Opioid receptor binding, [3H]DAMGO displacement
Settings: for Mu % inhibition: inhibition at 100 nM, NI = no inhibition; for pKi: read-out: Mu Ki

Structure (SMILES) | Mu % inhibition | pKi | fold improvement of binding affinity to MOR (compound 25 compared to compound 24) | fold more potent affinity to MOR (compound 39 vs unsubstituted parent compound 23)
O=C1CN2c3c(cccc3[C@@H]3CN(CCCCc4ccc(F)cc4)CC[C@@H]32)N1 | 88% | 8.39 |  | 
O=C1CN2c3c(cccc3[C@@H]3CN(CCCOc4ccc(Cl)cc4)CC[C@@H]32)N1 |  | 8.14 |  | 
Cn1nc(CCCN2CC[C@H]3[C@@H](C2)c2cccc4c2N3CC(=O)N4)c2ccc(F)cc21 |  | 8.15 | approximately 5 fold | 
O=c1[nH]c2cccc3c2n1[C@H]1CCN(CCCOc2ccc(F)cc2)C[C@@H]31 | (24%) |  |  | 
O=C1CN2c3c(cccc3[C@@H]3CN(CCCOc4ccc(F)c(F)c4)CC[C@@H]32)N1 [compound 39, (6bR,10aS)-8-(3-(3,4-Difluorophenoxy)propyl)-6b,7,8,9,10,10a-hexahydro-1H-pyrido[3′,4′:4,5]pyrrolo-[1,2,3-de]quinoxalin-2(3H)-one] | (91%) |  |  | about 11 fold
